{
  "source": "patent US6087334A",
  "about": "“Anti-diabetic peptides” (Amylin Pharmaceuticals, Inc., priority 1998, dated 2000)",
  "system": "gastric emptying in conscious rats",
  "conditions": "conscious rat model, dose response",
  "excerpt": "Peptide compounds of the present invention may be evaluated for amylin agonist activity using the methods of measuring the rate of gastric emptying disclosed in, for example, Young et al., Diabetologia, 38(6):642-648 (1995). In a phenol red method, which is described in Example D below, conscious rats receive by gavage an a caloric gel containing methyl cellulose and a phenol red indicator. Twenty minutes after gavage, animals are anesthetized using halothane, the stomach exposed and clamped at the pyloric and lower esophageal sphincters, removed and opened into an alkaline solution. Stomach content may be derived from the intensity of the phenol red in the alkaline solution, measured by absorbance at a wavelength of 560 nm. In a tritiated glucose method, conscious rats are gavaged with tritiated glucose in water. […] Tritium in the plasma separated from tail blood is collected at various timepoints and detected in a beta counter. […]\nGastric emptying was measured using a modification (Plourde et al., Life Sci. 53:857-862 (1993)) of the original method of Scarpignato et al. (Arch. Int. Pharmacodyn. Ther. 246:286-295 (1980)). […] Stomach content was derived from the intensity of the phenol red in the alkaline solution, measured by absorbance at a wavelength of 560 nm. […] In other experiments, particulate gastric contents were centrifuged to clear the solution for absorbance measurements. […]",
  "data": [
    {"substance": "CGRP (ACDTATCVTHRLAGLLSRSGGVVKNNFVPTNVGSKAF; Calcitonin gene-related peptide 1; UniProt P06881 83-119, looked up)", "values": [
      {"measurement": "Inhibition of gastric emptying (in words)", "result": "dose-dependently inhibit gastric emptying"}
    ]}
  ]
}
